In paper PMC5858991 (Neuropharmacology, 2018):
Read-outs that look alike come from different tables or passages of the source.

Protein sequences, listed by entry. Tags and fused reporters are not part of them.
UniProt Q99720, whole entry: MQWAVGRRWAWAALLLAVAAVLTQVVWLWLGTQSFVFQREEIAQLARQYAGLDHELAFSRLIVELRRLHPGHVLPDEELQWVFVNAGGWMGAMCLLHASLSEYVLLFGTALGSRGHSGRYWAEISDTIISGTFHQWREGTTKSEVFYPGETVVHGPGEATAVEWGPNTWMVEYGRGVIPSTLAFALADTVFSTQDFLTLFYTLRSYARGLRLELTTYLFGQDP

Columns and labels:
[1] = target: σ1R homomer (Homo sapiens, UniProt Q99720); test: Drug induced σ1R homomer BRET; assay type: cell-based
[2] = target: σ1R (Homo sapiens, UniProt Q99720)
[3] = target: FH-σ1R (Homo sapiens, UniProt Q99720)
[4] = target: σ1R-BiP interaction (Homo sapiens, UniProt Q99720); conditions: σ1-NL:VN-BiP, 2.5 and 10 min
[5] = BRET-transfected whole HEK293T cells
[6] = intact whole non-transfected HEK293T cells

Structure (SMILES)	effect on σ1R homomer BRET in competition mode ([1]; 1 μM haloperidol or 1 μM PD144418 added prior to tested ligand)	effect on σ1R homomer BRET signaling ([1]; single-ligand mode, σ1-NL:σ1-VN, 2.5-60 min)	Bmax from binding kinetics [2, 5] [fmol/mg]	Bmax from binding kinetics ([2]; HEK293T membrane preparation) [fmol/mg]	Bmax from binding kinetics [2, 6] [fmol/mg]	effect on σ1R multimer band ([3]; haloperidol 0.1 or 1 μM, (+)-pentazocine 10 μM, non-denaturing gel)	inhibition of multimer-promoting effect of haloperidol ([3]; haloperidol:(+)-pentazocine 0.1:10 μM and 1:10 μM)	drug induced σ1R-BiP BRET change [4]
CC(C)=CCN1CC[C@]2(C)c3cc(O)ccc3C[C@H]1[C@H]2C [(+)-pentazocine]	dose-dependent effects	no detectable effects on BRET signaling	4289 ± 2745	871 ± 403	1041 ± 540	decreased the density of multimer bands	inhibited haloperidol's effect in a dose dependent manner	bimodal dose response effect
CC(C)=CCN1CC[C@]2(C)c3cc(O)ccc3C[C@H]1[C@H]2C [[^3H]-(+)-pentazocine]	–	–	4289	871	1041	–	–	–
